Literature values, collected in paper PMC9585589 (2022).

Target: human CB1
Details: CB1 antagonists/inverse agonists, Table S9; ref SI (20)-(38), one per compound; cited from earlier work

| Compound | Ki [nM] |
| --- | --- |
| AM-251 | 7.49 |
| CCNC1(C(N)=O)CCN(c2ncnc3c2nc(-c2ccccc2Cl)n3-c2ccc(Cl)cc2)CC1 [Otenabant] | 0.7 |
